Earlier results on one compound are cited in patent US8945549B2, “Methods of treating antinociceptive tolerance” (Saint Louis University, priority 2010, dated 2015).

Chains of the proteins cited; added tags and fusions are not shown.
UniProt Q99500, whole entry, species assumed: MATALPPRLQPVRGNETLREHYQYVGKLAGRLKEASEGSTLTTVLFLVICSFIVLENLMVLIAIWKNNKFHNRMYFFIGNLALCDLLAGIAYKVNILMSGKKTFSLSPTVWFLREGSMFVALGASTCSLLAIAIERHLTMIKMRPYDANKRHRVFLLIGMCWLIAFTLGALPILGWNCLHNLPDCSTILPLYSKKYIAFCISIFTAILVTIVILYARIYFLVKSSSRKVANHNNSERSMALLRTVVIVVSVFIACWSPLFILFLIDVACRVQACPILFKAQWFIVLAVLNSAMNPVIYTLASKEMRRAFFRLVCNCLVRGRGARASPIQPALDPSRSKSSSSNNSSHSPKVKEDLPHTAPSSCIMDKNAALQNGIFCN
UniProt P21453, whole entry, species assumed: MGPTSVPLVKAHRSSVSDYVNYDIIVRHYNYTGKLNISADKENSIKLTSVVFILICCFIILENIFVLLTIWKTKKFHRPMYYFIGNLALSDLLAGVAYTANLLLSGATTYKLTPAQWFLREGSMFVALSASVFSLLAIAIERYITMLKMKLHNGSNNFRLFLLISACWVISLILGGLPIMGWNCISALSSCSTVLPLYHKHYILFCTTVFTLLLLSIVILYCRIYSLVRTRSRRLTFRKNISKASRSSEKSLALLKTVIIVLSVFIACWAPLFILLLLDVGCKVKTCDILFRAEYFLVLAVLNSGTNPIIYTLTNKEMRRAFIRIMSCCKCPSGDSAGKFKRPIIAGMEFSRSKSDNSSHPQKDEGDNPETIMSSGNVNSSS

The target of one data set is S1P3 (Homo sapiens, UniProt Q99500). Conditions: relative to S1P1; cited from earlier work.
The target in another data set is S1P1 (Homo sapiens, UniProt P21453). The note with it: cited from earlier work.

Molecules are shown by their SMILES.

Take `CCCCCCCCc1ccc(CC[C@](N)(CO)COP(=O)(O)O)cc1` [Fingolimod-P]: at S1P3, the “binding affinity for S1P3” value is on record as “slightly lower affinity”. The “binding affinity for S1P1” value at S1P1 is “highest binding affinity”.
